In article PMC12434534, “Synthesis and Antiviral Evaluation of Unexplored Dioxolane-Derived 7‑Deazapurine Nucleoside Analogues against Epstein–Barr Virus (EBV)” (ACS Medicinal Chemistry Letters, 2025):

Test system: EBV
Assay: Anti-EBV assay: reduction of EBV DNA synthesis (qPCR) in TPA-induced P3HR-1 cells
Details: selectivity index = CC50/EC50, P3HR-1 cells
Method: The antiviral potency of all synthesized nucleosides was evaluated by in-vitro cell-based assays. P3HR-1 cells were seeded in 24-well plates at a density of 1 × 10^6 cells/mL. EBV replication was induced by adding 25 ng/mL 12-O-tetradecanoylphorbol 13-acetate (TPA) (Sigma–Aldrich, Bornem, Belgium) to the growing cells. The next day, cells were washed and resuspended in fresh medium in the presence or absence of various concentrations of synthesized nucleosides (12–19). Ganciclovir (GCV) was used as antiviral control. On day 5 post-induction, total cellular DNA was extracted (QIAamp DNA kit; Qiagen Benelux B.V, Venlo, The Netherlands), and viral DNA was quantified by quantitative PCR (qPCR) using an ABI Prism 7500 Sequence Detection System (Applied Biosystems, Foster City, CA). Thermocycling conditions for all qPCRs were done following the manufacturer’s instructions. […] The results were obtained as a means from at least three independent experiments. The selectivity index of the compound was determined by the ratio of CC50/EC50. […]
Real-time PCR detection of viral DNA: EBV DNA was extracted with a QIAGEN Dneasy Blood and Tissue Kit. […] DNA concentration (ng/μL) was determined with a Nanophotometer (IMPLEN). The Real -time PCR was performed using QuantiTect Sybr Green PCR Kit. […]

Compound: Nc1ncnc2c1c(F)cn2[C@H]1CO[C@@H](CO)O1 [Compound 13]
- SI (CC50/EC50), EBV: 59
